In ChEMBL document CHEMBL2311251, “Synthesis and structure-activity relationship of piperidine-derived non-urea soluble epoxide hydrolase inhibitors” (Bioorg Med Chem Lett, 2013):

Test system: Liver microsomes
Assay: Half life in human liver microsomes after 90 mins by LC/MS analysis
Type: ADME, Microsome
Settings: 1.5 h

Cc1ccc(S(=O)(=O)N2CCC(C(=O)NC3CCCCCC3)CC2)c(C)c1
t1/2: 5.5 min
